Data on 1 compound can be found in patent US20230399607A1, “MATURATION AGENT” (Orizuru Therapeutics, Inc., priority 2020, published 2023).

Chains of the proteins cited; added tags and fusions are not shown.
UniProt Q9BWU1, whole entry, species assumed: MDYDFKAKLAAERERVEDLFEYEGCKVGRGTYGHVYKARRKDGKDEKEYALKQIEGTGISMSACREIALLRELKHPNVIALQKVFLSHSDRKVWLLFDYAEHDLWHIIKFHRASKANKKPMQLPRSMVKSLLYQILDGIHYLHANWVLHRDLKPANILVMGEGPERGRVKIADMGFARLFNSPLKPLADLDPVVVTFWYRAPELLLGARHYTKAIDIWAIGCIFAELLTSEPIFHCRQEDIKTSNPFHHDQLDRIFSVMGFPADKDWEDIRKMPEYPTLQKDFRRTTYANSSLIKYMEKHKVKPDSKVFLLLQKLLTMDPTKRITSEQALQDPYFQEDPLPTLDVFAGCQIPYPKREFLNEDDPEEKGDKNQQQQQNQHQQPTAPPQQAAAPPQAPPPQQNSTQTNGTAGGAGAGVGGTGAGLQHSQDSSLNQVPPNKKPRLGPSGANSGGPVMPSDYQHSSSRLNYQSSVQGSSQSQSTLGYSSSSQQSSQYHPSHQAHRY

The assay concerns the target CDK19 (Homo sapiens, UniProt Q9BWU1). The experiment in a line: Kinase panel test, binding-inhibiting activity against CDK19. To be noted: estimated from binding inhibition at 0.1 μM and 1 μM; "6" depicts IC50 ≥ 1 μM, "8" depicts IC50 ≤ 10 nM; read-out: Estimate pIC50 value CDK19 (converted). The procedure: The test compounds diethyl (E)-(4-(3-(5-(4-fluorophenyl)-1-methyl-1H-pyrazol-4-yl)acrylamido)benzyl)phosphonate (compound 1), 2-(4-(4-(isoquinolin-4-yl)phenyl)-1H-pyrazol-1-yl)-N,N-dimethylacetamide (compound 2 (BI-1347)), and 4-((2-(6-(4-methylpiperazine-1-carbonyl)naphthalen-2-yl)ethyl)amino)quinazoline-6-carbonitrile (compound 3 (Senexin B)) were evaluated for their ALK4-inhibiting activity, ALK5-inhibiting activity, CDK8-inhibiting activity and CDK19-inhibiting activity by the following method.
In the kinase panel test, 0.1 μM or 1 μM (that is, the seventh or sixth power of the −Log10 value) of each test compound was added to each of the kinases ALK4, ALK5, CDK8, and CDK19, and binding-inhibiting activity thereof was measured from 0 to 100%. Estimate pIC50 was calculated from the obtained two values and indicated by a value of 6 to 8.

Take `CN1CCN(C(=O)c2ccc3cc(CCNc4ncnc5ccc(C#N)cc45)ccc3c2)CC1` [Compound 3, 4-((2-(6-(4-methylpiperazine-1-carbonyl)naphthalen-2-yl)ethyl)amino)quinazoline-6-carbonitrile]: the IC50 was not above 10 nM.
